Source: PubChem BioAssay (Broad Institute)
This is a sample that favours compounds with a hit; in the whole collection about 2.8% have one here.
PglD DTNB = C. jejuni PglD acetyltransferase inhibitors, primary screen, biochemical, DTNB colorimetric, single point; purified PglD enzyme, DTNB colorimetric CoA detection; inhibition, % at 12.5 µM; 360,000 tested, 0.098% active; AID 602405, 2012; in the data active = inhibition above about 16%, passing the limit was not always enough; inconclusive = no clear call, values can overlap the other calls
esBAF inh = Bmi1 luciferase reporter increase in mESCs, primary screen, esBAF inhibitor project, mouse ES cells, Bmi1 luciferase knock-in, single point; 24 h; 100% = twice the neutral-well signal; reporter increase, % at 12.5 µM; 350,000 tested, 2% active; in the data active = activation above about 40%; inconclusive = no clear call, values can overlap the other calls;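 note: a rise in the Bmi1 reporter signal indicates esBAF inhibition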
Wnt bcat act = Wnt/beta-catenin pathway activators, primary screen, cell-based, plate reader, single point; Wnt/beta-catenin reporter cell assay, activator; activation, % at 9.35 µM; 300,000 tested, 1.2% active; in the data active = activation above about 30%, passing the limit was not always enough; inconclusive = no clear call, values can overlap the other calls
MITF act = activators of MITF-driven TRPM1 promoter reporter, primary screen, cell-based, SK-MEL-5, luciferase, single point; SK-MEL-5 TRPM1-promoter luciferase, 24 h; % of positive control, neutral wells = 0; activation, % at 12.5 µM; 300,000 tested, 0.75% active; AID 588334, 2011;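 active = mean activation of at least 80% with every replicate also reaching 80%; inconclusive = mean reaches 80% but some replicate falls short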
miR122 inh = miR-122 Renilla sensor signal increase in Huh7, primary screen, miR-122 inhibitor project, cell-based, single point, plate reader; AID 602342, 2012; 340,000 tested, 0.3% active; activation (reporter increase), % at 12.5 µM; Huh7 miR-122 Renilla luciferase sensor, 48 h; neutral wells = 0, positive control = 100;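 active = mean replicate activation score at least 90 and every replicate individually at or above 90; inconclusive = only one of the two criteria met; inactive = neither criterion met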;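 note: higher luciferase means less miR-122 activity so hits act as miR-122 inhibitors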
UUG fidelity = yeast start codon fidelity modulation; AID 602363; activity score, % at 18.7 µM; S. cerevisiae UUG-firefly luciferase reporter, luminescence/redox ratio; 0.13% of 350,000 active;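 active means replicate mean at a twofold rise or more, about +100% in these data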;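 further: firefly luciferase made from a UUG start codon reports start codon fidelity; reporter light over untreated wells divided by growth signal over untreated wells; some hits fall short of that in this replicate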
Large screens that a line does not name were inactive; [ ] = another dose, or the depositor's remark.

Cn1c(CSc2nc3ccccc3s2)n[nH]c1=S	none (no result: PglD DTNB, MITF act, UUG fidelity)
Cn1c(CNc2ccc(O)cc2)nc2ccccc21	none
Cn1c(CSc2nc3ccccc3s2)nc2ccccc21	esBAF inh 50 (no result: Wnt bcat act)
COc1ccc(CNc2nc3ccccc3n2C)c(OC)c1	none (no result: PglD DTNB, esBAF inh, miR122 inh, UUG fidelity)
Cc1ccc(CNc2nc3ccccc3n2C)cc1	none (no result: MITF act)
Cn1c(CNc2ccc(Br)cc2)nc2ccccc21	Wnt bcat act 40, MITF act inconclusive (no result: PglD DTNB, esBAF inh, miR122 inh, UUG fidelity)
COc1ccc(CNc2nc3ccccc3n2C)c(O)c1	Wnt bcat act inconclusive, MITF act 93 (no result: PglD DTNB, UUG fidelity)
Cn1c(NCc2ccc(Cl)cc2)nc2ccccc21	esBAF inh 71
C[C@@H]1CN([C@@H](C)CO)C(=O)c2ccccc2-c2ccccc2CO[C@@H]1CN(C)S(C)(=O)=O	none (no result: Wnt bcat act, MITF act, miR122 inh, UUG fidelity)
CN(C)C(=O)C[C@H]1C[C@H]2c3cc(NC(=O)Nc4ccccc4)ccc3O[C@H]2[C@H](CO)O1	none (no result: Wnt bcat act, MITF act)
Cn1c(NC(=S)Nc2ccccc2)nc2ccccc21	Wnt bcat act 41 (no result: PglD DTNB, esBAF inh, miR122 inh, UUG fidelity)
Cn1c(CNc2nc3ccccc3n2C)nc2ccccc21	esBAF inh 68 (no result: MITF act)
CC(C)n1c(NCc2nc3ccccc3n2C)nc2ccccc21	none (no result: Wnt bcat act, MITF act)
Cc1ccc(NCc2nc3ccccc3n2C)cc1	esBAF inh 72 (no result: Wnt bcat act, MITF act)
Cc1ccc(NCc2nc3ccccc3n2C)cc1C	esBAF inh 51 (no result: MITF act, miR122 inh)
COc1ccccc1-c1nnc(NC(=O)CSc2nncn2C)s1	Wnt bcat act 54 (no result: PglD DTNB, esBAF inh, miR122 inh, UUG fidelity)
O=C(c1ccccn1)N1CC[C@@H]2[C@H]1c1cc(-c3ccc(F)cc3)ccc1N[C@@H]2CO	esBAF inh 47 (no result: Wnt bcat act, MITF act)
O=C(c1ccccn1)N1CC[C@@H]2[C@H](CO)Nc3ccc(-c4ccccc4)cc3[C@@H]21	none (no result: Wnt bcat act, MITF act)
O=C(c1ccccc1F)N1CC[C@@H]2[C@@H](CO)Nc3ccc(-c4cccc(F)c4)cc3[C@@H]21	miR122 inh 104[16.7 µM] (no result: Wnt bcat act, MITF act)
COc1cccc(-c2ccc3c(c2)[C@H]2[C@H](CCN2S(=O)(=O)c2ccccc2C)[C@@H](CO)N3)c1	miR122 inh 97[16.7 µM] (no result: Wnt bcat act, MITF act)
C[C@@H]1CN([C@H](C)CO)C(=O)c2cccc(NC(=O)C3CCOCC3)c2O[C@@H]1CN(C)Cc1ccc2c(c1)OCO2	none (no result: Wnt bcat act, MITF act)
C[C@H](CO)N1C[C@H](C)[C@@H](CN(C)Cc2ccccc2)OCCCC[C@H](C)Oc2ccc(NS(=O)(=O)c3cn(C)cn3)cc2C1=O	none (no result: Wnt bcat act, MITF act)
O=C(CCl)N(O)c1ccc(C=Cc2ccccc2)cc1	Wnt bcat act 40 (no result: PglD DTNB, esBAF inh, UUG fidelity)
C/C=C/c1ccc2c(c1)[C@H]1[C@H](CCN1C(=O)Cc1cccnc1)[C@@H](CO)N2C	none (no result: Wnt bcat act, MITF act)
C/C=C/c1cnc2c(c1)C(=O)N([C@H](C)CO)C[C@@H](C)[C@@H](CN(C)C(=O)CN1CCOCC1)O2	none (no result: Wnt bcat act, MITF act)
Cc1cc(C)c(C(N)=O)c(Nc2cccc(Cl)c2)n1	none
Cc1ccccc1Nc1sc(C(=O)Nc2cccc(Cl)c2)c(N)c1C(N)=O	Wnt bcat act 52 (no result: PglD DTNB, esBAF inh, miR122 inh, UUG fidelity)
Cc1ccc(S(=O)(=O)Nc2ccc3c(c2)C(=O)N([C@H](C)CO)C[C@H](C)[C@@H](CN(C)C(=O)CCC(F)(F)F)OCCCC[C@H](C)O3)cc1	none (no result: Wnt bcat act, MITF act)
CCCCN(Cc1ccccc1)c1ncnc2nc[nH]c12	esBAF inh 67 (no result: Wnt bcat act, MITF act)
Cc1ccc(CONC(=O)c2cccc(C)c2)cc1	none
O=C(NOCc1ccccc1)c1ccccc1	Wnt bcat act 32
c1ccc2nc3c(nc2c1)OCC1CCCCN31 (stereo not drawn)	esBAF inh 48
c1ccc2nc(N3CCCC3)c(N3CCCCC3)nc2c1	none
CCCNC(=O)[C@H]1[C@H](CO)[C@H]2Cn3c(ccc(C4=CCCC4)c3=O)[C@@H]1N2	none (no result: Wnt bcat act, MITF act)
Cc1cc(=O)oc2cc(NC(=O)c3cccc(S(=O)(=O)N(C)C)c3)ccc12	MITF act 139
CCOc1ncccc1C(=O)Nc1ccc2c(C)cc(=O)oc2c1	none
Cc1cc(=O)oc2cc(NC(=O)c3cccc(S(C)(=O)=O)c3)ccc12	esBAF inh inconclusive, MITF act 93
Cc1cc(=O)oc2cc(OCC(=O)Nc3cccc(S(=O)(=O)N(C)C)c3)ccc12	none (no result: PglD DTNB, esBAF inh, miR122 inh, UUG fidelity)
Cc1cc(=O)oc2cc(NC(=O)C(C)Oc3ccc(F)cc3)ccc12 (stereo not drawn)	none
COc1ccccc1C(=O)Nc1ccc2c(C)cc(=O)oc2c1	esBAF inh 54, Wnt bcat act 48, MITF act 88 (no result: miR122 inh)
Cc1cc(=O)oc2cc(NC(=O)c3ccc(OC(F)F)cc3)ccc12	esBAF inh 57, MITF act 86 (no result: miR122 inh)
O=C(C[C@H]1CC[C@@H]2[C@H](COC[C@H](O)CN2Cc2cccc(-c3ccncc3)c2)O1)N1CCCCC1	none (no result: Wnt bcat act, MITF act)
O=C(Nc1ccc(SC(F)F)cc1)c1ccc2c(=O)n3c(nc2c1)CCC3	esBAF inh 87
O=C(NC1CCCCCC1)c1ccc2c(=O)n3c(nc2c1)CCCCC3	MITF act 92 (no result: Wnt bcat act)
O=C(Nc1ccc(F)cc1Cl)c1ccc2c(=O)n3c(nc2c1)CCCCC3	none (no result: esBAF inh, Wnt bcat act)
Cc1cccc(NC(=O)c2ccc3c(=O)n4c(nc3c2)CCCCC4)n1	Wnt bcat act 35 (no result: PglD DTNB, UUG fidelity)
O=C(Nc1ccccc1Cl)c1ccc2c(=O)n3c(nc2c1)CCC3	Wnt bcat act 51 (no result: PglD DTNB)
O=C(NCCOc1ccccc1F)c1ccc2c(=O)n3c(nc2c1)CCC3	Wnt bcat act 46
Cc1ccc2cc(CN(CC3CCCO3)S(=O)(=O)c3ccccc3)c3nnnn3c2c1 (stereo not drawn)	none
Cc1ccc2cc(CN(CC3CCCO3)C(=O)Nc3ccccc3F)c3nnnn3c2c1 (stereo not drawn)	esBAF inh 45 (no result: PglD DTNB, UUG fidelity)
Cc1ccc(C(=O)CSc2nnc3ccccn23)c(C)c1	Wnt bcat act 33 (no result: esBAF inh, miR122 inh)
Cc1ccc(C(=O)CSc2nnc(N)s2)c(C)c1	esBAF inh 61, MITF act 87
Cc1ccc(NC(=O)CSc2nnc3ccccn23)c(Cl)c1	esBAF inh 66 (no result: MITF act)
O=C([C@@H]1[C@@H](CO)[C@@H]2Cn3c(cccc3=O)[C@H]1N2C(=O)c1ccccc1)N1CCCCC1	none (no result: Wnt bcat act, MITF act, UUG fidelity)
O=C(/C=C/c1ccc(F)cc1)N1CCc2ccccc2C1	esBAF inh 48
Cc1ccc(/C=C/C(=O)N2CCc3ccccc3C2)cc1	esBAF inh 48
O=C(/C=C/C(=O)N1CCc2ccccc2C1)N1CCc2ccccc2C1	none (no result: PglD DTNB, esBAF inh, miR122 inh, UUG fidelity)
O=C(Cc1ccc(Br)cc1)N1CCc2ccccc2C1	esBAF inh 53 (no result: MITF act)
CC(C)(C)c1ccc(/C=C/C(=O)N2CCc3ccccc3C2)cc1	none
Cc1nc(N)nc(N)c1-c1ccc(Cl)c(Cl)c1	none (no result: PglD DTNB, UUG fidelity)
Nc1nc(N)nc(-c2ccc(Cl)c(Cl)c2)n1	Wnt bcat act 38
C[C@H](CO)N1C[C@H](C)[C@@H](CN(C)S(=O)(=O)c2ccc(Cl)cc2)Oc2ccc(NC(=O)C3CCCCC3)cc2C1=O	none (no result: Wnt bcat act, MITF act)
